# scFv variants of Ab-95 (light chain) against a SARS-CoV-2 spike peptide

Reference: Engelhart et al. 2022, doi:10.1038/s41597-022-01779-4. File: FLAb, binding data.

Binding partner: SARS-CoV-2 spike HR2 peptide, sequence PDVDLGDISGINAS.

The variants keep the heavy chain, the linker and the frameworks of Ab-95 (scFv order VH, a 15-residue (Gly4Ser)3 linker, VL).
VH: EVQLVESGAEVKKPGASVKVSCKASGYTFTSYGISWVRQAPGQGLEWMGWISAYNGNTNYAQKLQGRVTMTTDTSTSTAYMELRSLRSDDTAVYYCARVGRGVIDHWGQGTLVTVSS
VL: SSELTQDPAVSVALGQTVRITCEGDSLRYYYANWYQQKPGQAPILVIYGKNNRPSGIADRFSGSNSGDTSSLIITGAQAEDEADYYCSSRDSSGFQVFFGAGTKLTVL

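The parent was found by panning a naive human phage display library on the peptide. Variants in AAYL52 differ from the parent at up to three CDR positions; double and triple changes were sampled at random. In AlphaSeq, yeast of one mating type display the scFv and yeast of the other type display the target. After mating in shaken culture at 30 °C for 16 h, diploids were selected and their barcode pairs sequenced. A regression on co-assayed BCL2-family reference pairs converts the normalised counts of each replicate to an apparent Kd. There are three technical replicates.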

Substitutions are numbered in sequence along the VL above, starting at 1 (not Kabat). The read-out is the apparent dissociation constant on a log10 scale (nM): the lower, the stronger. A pair that was not seen in that replicate is written "nd"; this usually means weak binding, but a binder can also be missed. Background: pairings of library AAYL52 with three empty control strains gave a value in 28% of cases (median 3.91, 5th percentile 2.90). Values in that range, when seen in few replicates, are hard to tell from nonspecific mating. For each scFv, signals with the empty controls are counted beside the result, with their mean in brackets.

| changes | log10 Kd (nM) by replicate | signal with controls |
|---|---|---|
| K50S/N52M/S55P | 3.53 / 3.07 / 3.71 | 4 of 9 (3.93) |
| Y29A/R53M/S89H | nd / 3.87 / nd | 2 of 9 (3.87) |
| Y30I/A32Y/G94N | 4.46 / 3.82 / 4.19 | 3 of 9 (3.12) |
| Y30H/S93Y/Q96A | 2.18 / 2.60 / 2.38 | 1 of 9 (4.41) |
| G24Y/S26R/R53L | 3.90 / 4.70 / nd | 2 of 9 (4.97) |
| G49L/S55A/S92N | 5.53 / nd / nd | 3 of 9 (4.40) |
| G24Y/D25P/F95I | 5.53 / nd / 4.48 | 2 of 9 (3.43) |
| N33P/G49N/S92D | 4.36 / nd / 3.81 | 2 of 9 (3.90) |
| E23M/L27S/R53A | 3.64 / nd / 3.91 | 5 of 9 (3.69) |
| G24R/L27W/S88C | 3.66 / 2.81 / 4.28 | 0 of 9 |
| E23Q/R53A/S92G | 3.01 / 2.75 / 3.56 | 2 of 9 (3.97) |
| G24L/G49F/P54F | nd / 4.26 / 4.40 | 6 of 9 (3.75) |
| S89F/V97H/F98Y | 4.71 / 3.27 / nd | 6 of 9 (3.94) |
| Y29G/S88N/S89W | 2.40 / 3.26 / 4.03 | 2 of 9 (3.62) |
| S26E/N52W/V97W | nd / 4.55 / nd | 0 of 9 |
| N33R/S93A | 4.19 / 4.95 / 3.65 | 3 of 9 (3.74) |
| S26F/R53V | nd / 3.17 / 4.40 | 2 of 9 (4.85) |
| E23G/S89E/F95E | 2.34 / 3.03 / 1.81 | 2 of 9 (3.70) |
| G24K/S26Y/P54G | 3.17 / nd / 3.99 | 3 of 9 (3.69) |
| E23D/S26R | 3.19 / 3.91 / 3.19 | 4 of 9 (3.87) |
| A32R/F95Q | nd / nd / nd | 0 of 9 |
| P54T/S88M/Q96G | nd / 3.39 / nd | 3 of 9 (3.98) |
| S26Y/Y30N/F95I | 2.10 / 2.01 / 1.11 | 2 of 9 (3.58) |
| Y29L/R90W | 3.84 / 4.23 / nd | 3 of 9 (3.64) |
| S26H/N33T/S93M | 3.58 / nd / nd | 1 of 9 (4.13) |
| F98Y | 1.88 / 1.60 / 1.11 | 4 of 9 (3.90) |
| L27E/D91P/Q96V | 3.91 / nd / nd | 2 of 9 (3.57) |
| N33Q/S88Q/D91S | 2.48 / 1.98 / 1.54 | 3 of 9 (4.56) |
| N33K/G49D | 4.07 / 5.00 / nd | 2 of 9 (3.62) |
| A32T/G94Y | 2.24 / 2.05 / 2.03 | 3 of 9 (3.56) |
| D25G/F98K | 2.46 / 2.12 / 1.76 | 1 of 9 (3.56) |
| E23W/N33A/F95T | nd / nd / nd | 3 of 9 (4.02) |
| Q96M/F98N | 5.69 / 3.74 / nd | 3 of 9 (3.31) |
| R53S/V97S/F98I | 4.44 / 5.25 / 4.07 | 7 of 9 (4.24) |

For reference, 3 entries of the list once more:

changes,log10 Kd (nM) by replicate,signal with controls
E23G/S89E/F95E,2.34 / 3.03 / 1.81,2 of 9 (3.70)
E23Q/R53A/S92G,3.01 / 2.75 / 3.56,2 of 9 (3.97)
F98Y,1.88 / 1.60 / 1.11,4 of 9 (3.90)